This is an account of results in publication PMC4660058.

The target in experiment [1] is formin mDia1-bound actin filament barbed end (BF), set-up #1 (rabbit | human) (UniProt P68135). The experiment in a line: microfluidics-assisted single-filament fluorescence microscopy (kinetics of elongation changes); set-up #1: formin-bound barbed ends (BF) exposed to CP + PA (BF+C→BFC), then PA alone (constants 'from BFC'); unlabelled formin; F-buffer pH 7.8, 50 mM KCl, room temperature.

The target of experiment [2] is formin FMNL2-bound actin filament barbed end (rabbit | not stated) (UniProt P68135). Description: microfluidics-assisted single-filament fluorescence microscopy (kinetics of elongation changes); set-up #1: CP-capped barbed ends (BC) exposed to formin without PA for T_(expo) (BC+F→BCF), then PA alone (constants 'from BCF'); k′+F from a fit, not measured directly; F-buffer pH 7.8, 50 mM KCl, room temperature.

In experiment [3] the target is formin mDia1-bound actin filament barbed end (BF), set-up #1 (rabbit | human) (UniProt P68135). The experiment is described as above.
The target in experiment [4] is actin filament barbed end bound to surface-anchored biotin-SNAP-mDia1 (BF), set-up #2 (rabbit | human) (UniProt P68135). The experiment in a line: microfluidics-assisted single-filament fluorescence microscopy (kinetics of elongation changes); set-up #2: biotin-SNAP-mDia1 anchored on neutravidin coverslip, insertional barbed-end assembly; exposed to CP + unlabelled PA, then PA alone; detachment = BFC→BC+F, resumed growth = BFC→BF+C; F-buffer pH 7.8, 50 mM KCl, room temperature.

Experiment [5] addresses actin filament free barbed end (B) (rabbit) (UniProt P68135). The experiment in a line: microfluidics-assisted single-filament fluorescence microscopy (kinetics of elongation changes); set-up #1: filaments from surface-anchored spectrin–actin seeds, free barbed ends exposed to flows of CP or formin with profilin-actin (1 μM actin, 4 μM profilin); off-rates in PA alone; F-buffer pH 7.8, 50 mM KCl, room temperature; KD from the rate constants.

Regarding “capping protein (CP), αβ heterodimer (from UniProt P47753 1-286; P47757 1-277) (complex)”, the Kd (commonly a measure of binding affinity in units of concentration) in experiment [1] was 9 to 30 nM; in experiment [4] it was 25 nM; in experiment [5] it was 0.016 nM. The koff (usually a measure of how fast the partners let go of each other) was found to be 0.0018 s⁻¹ in experiment [1]; 0.0047 s⁻¹ in experiment [2]; 0.0062 s⁻¹ in experiment [3]; 0.00202 s⁻¹ in experiment [4]; 0.0002 s⁻¹ in experiment [5]. Besides, the kon (commonly a measure of how fast the partners come together) in experiment [1] was determined as 210000 M⁻¹ s⁻¹; in experiment [4], 80000 M⁻¹ s⁻¹; in experiment [5] it was 1.28e+07 M⁻¹ s⁻¹.
